The source of these data is patent US7419481B2, “Apparatus and method for piercing skin with microprotrusions” (ALZA Corporation, priority 2001, dated 2008).

Read-outs that look alike come from different tables or passages of the source.

The conditions of series [1]: impact applicator 0.2 J/cm^2 in less than 10 msec vs 2 kg/cm^2 manual pressure; 5 seconds and 1 hour contact; 214 μm microprojections; FIG. 7.
For series [2] the following is noted: 360 μm microprotrusions, 2 cm^2, 8 mm skin biopsy, fluorimetry.

ovalbumin: in series [1], the “amount of ovalbumin delivered (M), impact vs manual application” value is listed as “higher delivery following impact applciation as compared to manual application”. Further, the “total amount of ovalbumin delivered into the skin (average)” value in series [2] (impact applicator, 0.42 J in less than 10 msec, system removed after 5 seconds) is 30.1 µg; in series [2] (manual application, 2 kg/cm^2 pressure held 5 seconds), 6.6 µg.
